The target in this assay is Recombinant human cathepsin S (CatS) (Homo sapiens, UniProt P25774). Description: biochemical.

Protein sequences, listed by entry. Tags and fused reporters are not part of them. Residues count along the entry.
UniProt P25774, 115-331: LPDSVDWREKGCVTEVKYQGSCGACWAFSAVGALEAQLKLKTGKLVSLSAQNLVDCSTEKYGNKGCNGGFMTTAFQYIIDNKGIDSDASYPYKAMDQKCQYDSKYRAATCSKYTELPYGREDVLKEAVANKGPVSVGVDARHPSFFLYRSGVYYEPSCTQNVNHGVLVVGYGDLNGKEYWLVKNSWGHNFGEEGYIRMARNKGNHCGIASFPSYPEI

A word on the IC50: it is the concentration that inhibits the measured activity by half.

`CS(=O)(=O)N1CCc2c(c(-c3ccc(C(F)(F)F)c(SCCN4CCOC(CO)C4)c3)nn2CC(O)CN2CCC(N3CCCC3)CC2)C1` (stereo not drawn) [Example 760, 1-{3-[3-({2-[2-(Hydroxymethyl)morpholin-4-yl]ethyl}sulfanyl)-4-(trifluoromethyl)phenyl]-5-(methylsulfonyl)-4,5,6,7-tetrahydro-1H-pyrazolo[4,3-c]pyridin-1-yl}-3-(4-pyrrolidin-1-ylpiperidin-1-yl)propan-2-ol]: the IC50 was 300 nM.

Regarding `CC1CCN(C(=O)CSc2cc(-c3nn(CCCN4CCC(N5CCCC5=O)CC4)c4c3CN(S(C)(=O)=O)CC4)ccc2C(F)(F)F)CC1` [Example 90, 1-{1-[3-(5-Methanesulfonyl-3-{3-[2-(4-methyl-piperidin-1-yl)-2-oxo-ethylsulfanyl]-4-trifluoromethyl-phenyl}-4,5,6,7-tetrahydro-pyrazolo[4,3-c]pyridin-1-yl)-propyl]-piperidin-4-yl}-pyrrolidin-2-one], the IC50 was 220 nM. In the case of `CC(=O)NCC1CCN(CC(O)Cn2nc(-c3ccc(C(F)(F)F)c(SCCN4CCOCC4)c3)c3c2CCN(S(C)(=O)=O)C3)CC1` (stereo not drawn) [Example 650, N-[(1-{2-Hydroxy-3-[5-(methylsulfonyl)-3-{3-[(2-morpholin-4-ylethyl)sulfanyl]-4-(trifluoromethyl)phenyl}-4,5,6,7-tetrahydro-1H-pyrazolo[4,3-c]pyridin-1-yl]propyl}piperidin-4-yl)methyl]acetamide], the 50% inhibitory concentration (IC50) turned out to be 430 nM. Turning to `COc1ccccc1C1CCN(CC(O)Cn2nc(-c3ccc(C(F)(F)F)c(SCC(=O)N4CCOCC4)c3)c3c2CCN(C(=O)CO)C3)CC1` (stereo not drawn) [Example 275, 1-[5-(Hydroxyacetyl)-3-{3-[(2-morpholin-4-yl-2-oxoethyl)sulfanyl]-4-(trifluoromethyl)phenyl}-4,5,6,7-tetrahydro-1H-pyrazolo[4,3-c]pyridin-1-yl]-3-{4-[2-(methyloxy)phenyl]piperidin-1-yl}propan-2-ol], the IC50 was found to be 10 nM. For `C[C@H](O)C(=O)N1CCc2c(c(-c3ccc(C(F)(F)F)c(SCCN4CCC(F)CC4)c3)nn2CC(O)CN2CCCCC2)C1` (stereo partly drawn) [Example 370, (2S)-1-{3-[3-{[2-(4-Fluoropiperidin-1-yl)ethyl]sulfanyl}-4-(trifluoromethyl)phenyl]-1-(2-hydroxy-3-piperidin-1-ylpropyl)-1,4,6,7-tetrahydro-5H-pyrazolo[4,3-c]pyridin-5-yl}-1-oxopropan-2-ol], the IC50 amounted to 280 nM. As to `CS(=O)(=O)NC1CCN(C[C@H](O)Cn2nc(-c3ccc(C(F)(F)F)c(SCCN4CCC(F)CC4)c3)c3c2CCNC3)CC1` [Example 477, N-{1-[(2S)-3-{3-[3-{[2-(4-Fluoropiperidin-1-yl)ethyl]sulfanyl}-4-(trifluoromethyl)phenyl]-4,5,6,7-tetrahydro-1H-pyrazolo[4,3-c]pyridin-1-yl}-2-hydroxypropyl]piperidin-4-yl}methanesulfonamide], the IC50 was 4530 nM.

As to `CS(=O)(=O)N1CCc2c(c(-c3ccc(C(F)(F)F)c(SCCN4CCSC4)c3)nn2CCCN2CCC(N3CCCC3=O)CC2)C1` [Example 41, 1-[1-(3-{5-Methanesulfonyl-3-[3-(2-thiazolidin-3-yl-ethylsulfanyl)-4-trifluoromethyl-phenyl]-4,5,6,7-tetrahydro-pyrazolo[4,3-c]pyridin-1-yl}-propyl)-piperidin-4-yl]-pyrrolidin-2-one], the IC50 came out at 320 nM. With `CS(=O)(=O)N1CCc2c(c(-c3ccc(C(F)(F)F)c(SCCN4CCC(O)CC4)c3)nn2CC(O)CN2CCC(N3CCCC3=O)CC2)C1` (stereo not drawn) [Example 170, 1-[1-(2-Hydroxy-3-{3-[3-{[2-(4-hydroxypiperidin-1-yl)ethyl]sulfanyl}-4-(trifluoromethyl)phenyl]-5-(methylsulfonyl)-4,5,6,7-tetrahydro-1H-pyrazolo[4,3-c]pyridin-1-yl}propyl)piperidin-4-yl]pyrrolidin-2-one] the figure was 70 nM; with `CC(=O)NCC1CCN(CC(O)Cn2nc(-c3ccc(C(F)(F)F)c(SCCN4CCCC4)c3)c3c2CCN(S(C)(=O)=O)C3)CC1` (stereo not drawn) [Example 596, N-[(1-{2-Hydroxy-3-[5-(methylsulfonyl)-3-{3-[(2-pyrrolidin-1-ylethyl)sulfanyl]-4-(trifluoromethyl)phenyl}-4,5,6,7-tetrahydro-1H-pyrazolo[4,3-c]pyridin-1-yl]propyl}piperidin-4-yl)methyl]acetamide], 590 nM; with `CC(=O)NC1CCN(CC(O)Cn2nc(-c3ccc(C(F)(F)F)c(SCCN4CCCC4)c3)c3c2CCN(S(C)(=O)=O)C3)C1` (stereo not drawn) [Example 450, N-(1-{2-Hydroxy-3-[5-(methylsulfonyl)-3-{3-[(2-pyrrolidin-1-ylethyl)sulfanyl]-4-(trifluoromethyl)phenyl}-4,5,6,7-tetrahydro-1H-pyrazolo[4,3-c]pyridin-1-yl]propyl}pyrrolidin-3-yl)acetamide], 940 nM. `CS(=O)(=O)NC1CCN(CC(O)Cn2nc(-c3ccc(C(F)(F)F)c(SCC(=O)N4CCCC4)c3)c3c2CCNC3)CC1` (stereo not drawn) [Example 379, N-{1-[2-Hydroxy-3-(3-{3-[(2-oxo-2-pyrrolidin-1-ylethyl)sulfanyl]-4-(trifluoromethyl)phenyl}-4,5,6,7-tetrahydro-1H-pyrazolo[4,3-c]pyridin-1-yl)propyl]piperidin-4-yl}methanesulfonamide]: the IC50 is 1290 nM. With `CC1(C)CCN(C[C@H](O)Cn2nc(-c3ccc(C(F)(F)F)c(SCCN4CC[C@H](F)C4)c3)c3c2CCN(S(C)(=O)=O)C3)CC1` [Example 464, (2S)-1-(4,4-Dimethylpiperidin-1-yl)-3-{3-[3-({2-[(3S)-3-fluoropyrrolidin-1-yl]ethyl}sulfanyl)-4-(trifluoromethyl)phenyl]-5-(methylsulfonyl)-4,5,6,7-tetrahydro-1H-pyrazolo[4,3-c]pyridin-1-yl}propan-2-ol], the IC50 came to 650 nM. In the case of `CS(=O)(=O)N1CCc2c(c(-c3ccc(C(F)(F)F)c(SCCN4CCC(F)(F)CC4)c3)nn2C[C@@H](O)CN2C=NCCC2)C1` [Example 493, (2S)-1-{3-[3-{[2-(4,4-Difluoropiperidin-1-yl)ethyl]sulfanyl}-4-(trifluoromethyl)phenyl]-5-(methylsulfonyl)-4,5,6,7-tetrahydro-1H-pyrazolo[4,3-c]pyridin-1-yl}-3-(5,6-dihydropyrimidin-1(4H)-yl)propan-2-ol], the IC50 was 340 nM. With `CC(C)(C)C1CCN(C[C@H](O)Cn2nc(-c3ccc(C(F)(F)F)c(SCCN4CC[C@H](F)C4)c3)c3c2CCN(S(C)(=O)=O)C3)CC1` [Example 605, (2S)-1-[4-(1,1-Dimethylethyl)piperidin-1-yl]-3-{3-[3-({2-[(3S)-3-fluoropyrrolidin-1-yl]ethyl}sulfanyl)-4-(trifluoromethyl)phenyl]-5-(methylsulfonyl)-4,5,6,7-tetrahydro-1H-pyrazolo[4,3-c]pyridin-1-yl}propan-2-ol], the IC50 was 220 nM. In the case of `O[C@@H](CN1CCN(c2cccc(C(F)(F)F)c2)CC1)Cn1nc(-c2ccc(C(F)(F)F)c(SCCN3CCC(F)CC3)c2)c2c1CCNC2` [Example 689, (2S)-1-{3-[3-{[2-(4-Fluoropiperidin-1-yl)ethyl]sulfanyl}-4-(trifluoromethyl)phenyl]-4,5,6,7-tetrahydro-1H-pyrazolo[4,3-c]pyridin-1-yl}-3-{4-[3-(trifluoromethyl)phenyl]piperazin-1-yl}propan-2-ol], the IC50 turned out to be 390 nM. As to `O=C(C1CCN(C[C@H](O)Cn2nc(-c3ccc(C(F)(F)F)c(SCCN4CCC(F)CC4)c3)c3c2CCNC3)CC1)N1CCCC1` [Example 512, (2S)-1-{3-[3-{[2-(4-Fluoropiperidin-1-yl)ethyl]sulfanyl}-4-(trifluoromethyl)phenyl]-4,5,6,7-tetrahydro-1H-pyrazolo[4,3-c]pyridin-1-yl}-3-[4-(pyrrolidin-1-ylcarbonyl)piperidin-1-yl]propan-2-ol], the IC50 was 2650 nM.

In the case of `CS(=O)(=O)N1CCc2c(c(-c3ccc(C(F)(F)F)c(SCCN4CCCC(F)C4)c3)nn2C[C@@H](O)CN2CCC(NC(=O)CO)CC2)C1` (stereo partly drawn) [Example 705, N-{1-[(2S)-3-{3-[3-{[2-(3-Fluoropiperidin-1-yl)ethyl]sulfanyl}-4-(trifluoromethyl)phenyl]-5-(methylsulfonyl)-4,5,6,7-tetrahydro-1H-pyrazolo[4,3-c]pyridin-1-yl}-2-hydroxypropyl]piperidin-4-yl}-2-hydroxyacetamide], the IC50 is 65 nM. For `CS(=O)(=O)N1CCc2c(c(-c3ccc(C(F)(F)F)c(SCCN4CCC(F)CC4)c3)nn2C[C@@H](O)CN2CCC(O)CC2)C1` [Example 480, 1-[(2S)-3-{3-[3-{[2-(4-Fluoropiperidin-1-yl)ethyl]sulfanyl}-4-(trifluoromethyl)phenyl]-5-(methylsulfonyl)-4,5,6,7-tetrahydro-1H-pyrazolo[4,3-c]pyridin-1-yl}-2-hydroxypropyl]piperidin-4-ol], the IC50 came out at 130 nM. As for `OC(CN1CCC(O)(c2ccccn2)CC1)Cn1nc(-c2ccc(C(F)(F)F)c(SCCN3CCC(F)(F)C3)c2)c2c1CCNC2` (stereo not drawn) [Example 507, 1-(3-{3-[3-{[2-(3,3-Difluoropyrrolidin-1-yl)ethyl]sulfanyl}-4-(trifluoromethyl)phenyl]-4,5,6,7-tetrahydro-1H-pyrazolo[4,3-c]pyridin-1-yl}-2-hydroxypropyl)-4-pyridin-2-ylpiperidin-4-ol], the IC50 stood at 1070 nM. As to `CS(=O)(=O)N1CCc2c(c(-c3ccc(C(F)(F)F)c(SCCN4CCC(F)CC4)c3)nn2CC(O)CN2CCC(O)(c3ccccn3)CC2)C1` (stereo not drawn) [Example 787, 1-(3-{3-[3-{[2-(4-Fluoropiperidin-1-yl)ethyl]sulfanyl}-4-(trifluoromethyl)phenyl]-5-(methylsulfonyl)-4,5,6,7-tetrahydro-1H-pyrazolo[4,3-c]pyridin-1-yl}-2-hydroxypropyl)-4-pyridin-2-ylpiperidin-4-ol], the IC50 stood at 35 nM. With `CS(=O)(=O)N1CCc2c(c(-c3ccc(C(F)(F)F)c(SCCN4CCCC(O)C4)c3)nn2CC(O)CN2CCC(Oc3ncccn3)CC2)C1` (stereo not drawn) [Example 191, 1-[2-({5-[1-{2-Hydroxy-3-[4-(pyrimidin-2-yloxy)piperidin-1-yl]propyl}-5-(methylsulfonyl)-4,5,6,7-tetrahydro-1H-pyrazolo[4,3-c]pyridin-3-yl]-2-(trifluoromethyl)phenyl}sulfanyl)ethyl]piperidin-3-ol] the figure was 60 nM.

The values are drawn from patent US20090099157A1, “TETRAHYDRO-PYRAZOLO-PYRIDINE THIOETHER MODULATORS OF CATHEPSIN S” (priority 2007, published 2009).
